The target of this assay is Nitric oxide synthase, brain (Homo sapiens, UniProt P29475). Description: Inhibition Assay.

The chains behind the UniProt entries cited, without tags or fusion partners.
UniProt P29475, whole entry: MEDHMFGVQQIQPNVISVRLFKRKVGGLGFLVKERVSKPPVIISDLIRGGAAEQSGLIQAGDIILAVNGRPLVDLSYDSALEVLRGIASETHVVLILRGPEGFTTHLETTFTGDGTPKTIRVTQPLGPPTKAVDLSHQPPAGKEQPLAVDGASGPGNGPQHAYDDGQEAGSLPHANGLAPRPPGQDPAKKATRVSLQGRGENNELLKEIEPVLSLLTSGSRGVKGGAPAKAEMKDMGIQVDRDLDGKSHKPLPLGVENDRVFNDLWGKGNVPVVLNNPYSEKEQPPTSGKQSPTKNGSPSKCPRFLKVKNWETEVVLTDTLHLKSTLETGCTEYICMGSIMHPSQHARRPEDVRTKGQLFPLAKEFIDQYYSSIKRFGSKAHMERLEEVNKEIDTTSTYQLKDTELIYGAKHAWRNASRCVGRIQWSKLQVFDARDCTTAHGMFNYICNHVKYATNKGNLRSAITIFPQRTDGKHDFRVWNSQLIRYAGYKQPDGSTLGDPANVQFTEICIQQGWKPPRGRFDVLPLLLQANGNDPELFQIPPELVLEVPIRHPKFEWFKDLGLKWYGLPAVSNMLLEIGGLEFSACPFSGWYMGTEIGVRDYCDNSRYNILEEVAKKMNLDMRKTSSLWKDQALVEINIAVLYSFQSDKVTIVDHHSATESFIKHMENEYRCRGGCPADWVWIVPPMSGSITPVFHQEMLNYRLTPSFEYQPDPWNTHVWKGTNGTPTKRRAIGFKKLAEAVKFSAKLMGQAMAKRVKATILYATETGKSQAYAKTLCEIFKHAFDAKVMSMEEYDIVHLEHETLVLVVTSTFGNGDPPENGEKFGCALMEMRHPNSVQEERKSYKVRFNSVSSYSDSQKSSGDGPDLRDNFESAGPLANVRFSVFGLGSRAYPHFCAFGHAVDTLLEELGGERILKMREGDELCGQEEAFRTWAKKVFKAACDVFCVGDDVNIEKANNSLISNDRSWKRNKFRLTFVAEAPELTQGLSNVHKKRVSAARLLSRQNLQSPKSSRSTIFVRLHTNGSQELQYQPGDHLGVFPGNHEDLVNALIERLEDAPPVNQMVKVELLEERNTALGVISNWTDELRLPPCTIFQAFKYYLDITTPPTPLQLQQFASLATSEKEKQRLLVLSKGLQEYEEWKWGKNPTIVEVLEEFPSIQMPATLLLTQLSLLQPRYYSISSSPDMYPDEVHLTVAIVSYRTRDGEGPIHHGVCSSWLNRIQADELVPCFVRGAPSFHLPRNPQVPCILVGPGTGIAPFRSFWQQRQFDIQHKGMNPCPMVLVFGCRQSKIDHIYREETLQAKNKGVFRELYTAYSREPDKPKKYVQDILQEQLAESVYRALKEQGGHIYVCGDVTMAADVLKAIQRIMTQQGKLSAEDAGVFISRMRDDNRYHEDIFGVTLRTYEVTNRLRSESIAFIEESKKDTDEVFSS

pKi: −log10 of the molar value.

In general, pKi refers to the negative decadic logarithm of the Ki, by convention in mol/L. Low readings indicate a large Ki, high ones a small Ki.

The molecule `Cc1cc(N)nc(CCc2cccc(CCc3cc(C)cc(N)n3)c2)c1` [US9951014, Name 31a] showed a pKi of 7.31.

Values taken from BindingDB's records for patent US9951014 (Northwestern University, 2018).
